This passage reports IC50 results from US20250270222A1, “AP2 ASSOCIATED KINASE 1 INHIBITORS AND USES THEREOF” (Satellos Bioscience Inc., priority 2023, published 2025).

Sequences of proteins named here, by UniProt entry; tags and fusion partners are left off. Residues count along the entry.
UniProt Q9NSY1, 38-345 K320A/K321A: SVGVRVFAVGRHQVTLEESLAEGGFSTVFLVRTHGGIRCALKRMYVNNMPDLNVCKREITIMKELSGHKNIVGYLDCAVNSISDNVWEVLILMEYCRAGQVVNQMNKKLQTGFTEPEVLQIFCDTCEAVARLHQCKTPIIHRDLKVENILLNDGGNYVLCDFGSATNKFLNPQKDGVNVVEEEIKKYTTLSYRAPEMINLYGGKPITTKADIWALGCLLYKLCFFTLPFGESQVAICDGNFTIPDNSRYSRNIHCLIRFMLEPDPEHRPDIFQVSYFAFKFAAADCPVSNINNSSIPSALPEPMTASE

This assay has as its target BIKE (amino acids S38-E345) (K320A, K321A) (Homo sapiens (Human), UniProt Q9NSY1, K320A/K321A). Description: BIKE pSENs assay. The class given is biochemical. Here is the method:
The recombinant proteins were independently expressed in Esherichia coli BL21(DE3) cells cultured in Luria-Bertani (LB) medium until OD600 reached 0.6-0.8, then cooled to 15° C., and supplemented with 0.5 mM isopropyl 1-thio-D-galactopyranoside (IPTG) induce protein expression 16 h. Cells were harvested and resuspended in lysis buffer (50 mM HEPES pH 7.5, 500 mM NaCl, 5 mM imidazole, 5% glycerol, 0.5 mM Tris (2-carboxyethyl) phosphine (TCEP), cOmplete Protease Inhibitor Tablet (Roche)) and lysed by microfluidics high pressure homogenizer (UH-06, Union-Biotech). Proteins were purified using Ni-Affinity chromatography (His FF column, Bestchrom) and eluted stepwise in binding buffer with 20-300 mM imidazole. Removal of the hexahistidine tag was performed at 4° C. overnight using recombinant TEV protease and reacted with BirA to obtain the corresponding biotinylated-AAK1. BIKE or GAK proteins. Further separated in the reverse Strep column (Strep-Tactin® XT, IBA). The Biotin elution sample was collected containing untagged biotinylated protein was then purified by Ion-exchange chromatography (Mono Q 10/100 GL, Cytiva) and Size-exclusion chromatography (HiLoad 16/600 Superdex 200 pg, Cytiva). The pure protein was stored in a storage buffer 50 mM HEPES (pH 7.5), 300 mM NaCl, 5% glycerol at −80° C. Protein were characterized by SDS-PAGE. LC-MS and aSEC. […]

On to `NC(=O)CN1C[C@H](OC(=O)N2CCN(c3ccn4ncc(-c5cccnc5OC5CC5)c4n3)CC2)CC1=O` [Compound I-29, [(3R)-1-(2-Amino-2-oxo-ethyl)-5-oxo-pyrrolidin-3-yl]4-[3-[2-(cyclopropoxy)-3-pyridyl]pyrazolo[1,5-a]pyrimidin-5-yl]piperazine-1-carboxylate], for which the IC50 was more than 1.5 µM.
